Test results from ChEMBL document CHEMBL3425494, “Design, synthesis, and antitumor evaluation of novel histone deacetylase inhibitors equipped with a phenylsulfonylfuroxan module as a nitric oxide donor” (J Med Chem, 2015).

By UniProt entry, the sequences of proteins in these tests, tags left out. Where a name states a change or a piece, a line headed by the entry shows the natural chain unless it says otherwise.
UniProt Q13547: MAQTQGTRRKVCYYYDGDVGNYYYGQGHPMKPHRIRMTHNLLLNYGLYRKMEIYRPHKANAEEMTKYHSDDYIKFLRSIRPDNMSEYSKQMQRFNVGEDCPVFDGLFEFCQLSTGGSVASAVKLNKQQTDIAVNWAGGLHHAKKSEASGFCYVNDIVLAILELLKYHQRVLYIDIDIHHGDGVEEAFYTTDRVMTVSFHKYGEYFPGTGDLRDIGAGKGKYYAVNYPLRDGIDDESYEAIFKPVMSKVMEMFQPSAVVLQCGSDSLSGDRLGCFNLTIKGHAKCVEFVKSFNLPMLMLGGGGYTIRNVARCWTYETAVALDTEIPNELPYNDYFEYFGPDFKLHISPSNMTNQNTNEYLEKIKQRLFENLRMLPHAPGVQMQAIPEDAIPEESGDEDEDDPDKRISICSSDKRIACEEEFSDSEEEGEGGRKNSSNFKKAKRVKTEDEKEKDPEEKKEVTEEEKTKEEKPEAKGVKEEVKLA
UniProt Q92769: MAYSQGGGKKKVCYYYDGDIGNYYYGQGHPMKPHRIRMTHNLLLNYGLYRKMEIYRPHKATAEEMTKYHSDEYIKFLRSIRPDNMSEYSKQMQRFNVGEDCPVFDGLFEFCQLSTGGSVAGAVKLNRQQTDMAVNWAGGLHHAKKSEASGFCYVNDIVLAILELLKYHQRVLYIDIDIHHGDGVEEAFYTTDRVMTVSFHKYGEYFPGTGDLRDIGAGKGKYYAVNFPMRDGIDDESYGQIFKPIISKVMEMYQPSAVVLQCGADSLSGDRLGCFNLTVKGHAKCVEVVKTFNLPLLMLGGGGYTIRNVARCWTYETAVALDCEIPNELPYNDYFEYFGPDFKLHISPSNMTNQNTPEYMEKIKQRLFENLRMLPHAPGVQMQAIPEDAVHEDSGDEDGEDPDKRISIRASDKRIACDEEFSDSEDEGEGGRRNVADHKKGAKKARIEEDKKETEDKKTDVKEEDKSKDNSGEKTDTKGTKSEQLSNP

Target: Histone deacetylase (HDAC1 and HDAC2) (Homo sapiens, UniProt Q13547+Q92769)
Type: cell-based
Settings: hela

SMILES: O=C(CCCCCOc1no[n+]([O-])c1S(=O)(=O)c1ccccc1)NO
- IC50: 38 nM
